Screening results deposited in PubChem by National Center for Advancing Translational Sciences (NCATS).
An excerpt weighted towards active compounds, which were near 2.4% of everything screened.
PKM2 activator – qHTS Assay for Activators of Human Muscle isoform 2 Pyruvate Kinase; Potency, µM (highest dose often 57.5 µM), for inactives: at the top dose activation, most hits filed as activators; Pyruvate kinase PKM (Homo sapiens), P14618; hit rate 0.34% among 260,000; purified PKM2, Kinase-Glo ATP luminescence, activation; response scale: 0% is enzyme alone, no compound; further: on the % scale 0 is the no-effect control and ±100 the full control effect; nearly all actives have a fitted effect of over 55% in size
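Purified hPK-M2 (>95%) run at intermediate activity with 0.1 mM ADP and 0.5 mM PEP in 50 mM imidazole pH 7.2, KCl, MgCl2; 1 h room temperature. ATP formed read by Kinase-Glo luminescence; normalized to uninhibited and no-enzyme controls.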
ELG1 repair inh – qHTS screen for small molecules that inhibit ELG1-dependent DNA repair in human embryonic kidney (HEK293T) cells expressing luciferase-tagged ELG1; Potency, µM (titrated, usually from 46.1 µM), for inactives: at the top dose activity change, negative = inhibition, hits mostly inhibitors; HEK293T ELG1-luciferase reporter, luminescence, 16 h; DNA damage induced by 5-fluorouridine; hit rate 2.3% among 330,000; further: on the % scale 0 is the no-effect control and ±100 the full control effect; nearly all actives have a fitted effect of over 55% in size
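Quantitative HTS, concentration-response format. 2,000 cells/well co-treated with 5-fluorouridine and compound, 16 hr in 5% CO2 at 37 °C; ONE-Glo luminescence read after 30 min.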
Tb PGK inh – qHTS Assay to Find Inhibitors of Phosphoglycerate Kinase | Phosphoglycerate kinase, glycosomal (Trypanosoma brucei brucei), P07378 | PGK/GAPDH coupled, Kinase-Glo luminescence, 60 min | Potency, µM (highest dose often 57.5 µM), inactives show at the top dose activity change, negative = inhibition, hits mostly inhibitors | hit rate 0.043% among 380,000 | AID 602233, 2012; further: on the % scale 0 is the no-effect control and ±100 the full control effect; nearly all actives have a fitted effect of over 60% in size
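Luminescent ATP detection (Kinase-Glo Plus) follows a 60-minute room-temperature incubation, with wells lacking PGK as controls. Buffer: 100 mM TEA (pH 7.6), 5 mM MgCl2, 0.01% Tween-20. Coupling enzyme GAPDH (100 nM final) supplies unstable 1,3-BPG in-well.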
Tb PFK block – qHTS Assay to Find Inhibitors of T. brucei phosphofructokinase; Potency, µM (series often up to 57.5 µM), inactives show top-dose activity, negative = inhibition, most hits filed as inhibitors; AID 485367, 2010; ATP-dependent 6-phosphofructokinase (Trypanosoma brucei brucei), O15648; hit rate 0.17% among 330,000; T. brucei PFK, ADP-Glo luminescence;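 further: 0% = uninhibited 1x PFK enzyme wells and -100% = no-enzyme wells; nearly all actives have a fitted effect of over 60% in size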
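Luminescent ADP detection (ADP-Glo, two-step: ATP depletion then ADP-to-ATP conversion for luciferase) reported PFK activity after 45 min room-temperature reaction of 1.25 nM enzyme with 0.5 mM F6P and 0.1 mM ATP at pH 8.0.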
Rango-impB inh – qHTS Assay for Inhibitors of Rango (Ran-regulated importin-beta cargo) - Importin beta complex formation. Importin subunit beta-1 (Homo sapiens), Q14974. Rango CFP/YFP FRET sensor + importin beta, 45 min. Potency, µM (highest dose often 92.2 µM), inactives show at the top dose inhibition of complex formation. hit rate 0.031% among 340,000. AID 540263, 2011; calls by dose curve;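 further: 0% = DMSO wells and 100% = buffer wells lacking importin beta; nearly all actives have a fitted effect of over 15% in size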
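FRET biosensor Rango (snurportin 1 IBB between N-terminal EYFP and C-terminal Cerulean), 50 nM in PBS/1 mM DTT/0.02% Tween-20/0.1% BSA, preincubated 5 min RT with compound; 0.125 microM importin beta added, 45 min RT, CFP/YFP FRET ratio read.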
Rango dissoc inh – qHTS Assay for Inhibitors of RanGTP induced Rango (Ran-regulated importin-beta cargo) - Importin beta complex dissociation | Snurportin-1 (Homo sapiens) + GTP-binding nuclear protein Ran (Homo sapiens) + Importin … | hit rate 0.071% among 340,000 | AID 540253, 2011 | Potency, µM (series often up to 46.1 µM), without a hit: at the highest dose activity change, negative = inhibition | Biochemical FRET Rango-importin beta, RanGTP-induced dissociation; calls by dose curve; further: % of control where 0% means no effect; nearly all actives have a fitted effect of over 45% in size
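FRET read at 45 min, room temperature: inhibitors block the CFP/YFP signal rise when RanGTP (0.6 uM Ran, 2 mM GTP, 0.2 uM RCC1) frees Rango (0.1 uM) from importin beta (0.25 uM). Pre-read after 5 min compound exposure flags interference.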
The depositor's hits bear a star; i = inactive; ? = inconclusive; . = no result given; [ ] = remark or other dose. Unless noted, the call rests on the fitted dose curve; in most records, active means well fitted curve in the direction sought with a large enough effect; inconclusive means small, poorly fitted or top-dose-only effect, or another doubt; inactive means no such curve, though single readings can be large; an effect the other way counts as inactive or inconclusive. Potency means the concentration at half of the fitted maximal effect.

By UniProt entry, the sequences of proteins in these tests, tags left out.
Pyruvate kinase PKM (Homo sapiens), P14618, UniProt P14618, whole entry, looked up: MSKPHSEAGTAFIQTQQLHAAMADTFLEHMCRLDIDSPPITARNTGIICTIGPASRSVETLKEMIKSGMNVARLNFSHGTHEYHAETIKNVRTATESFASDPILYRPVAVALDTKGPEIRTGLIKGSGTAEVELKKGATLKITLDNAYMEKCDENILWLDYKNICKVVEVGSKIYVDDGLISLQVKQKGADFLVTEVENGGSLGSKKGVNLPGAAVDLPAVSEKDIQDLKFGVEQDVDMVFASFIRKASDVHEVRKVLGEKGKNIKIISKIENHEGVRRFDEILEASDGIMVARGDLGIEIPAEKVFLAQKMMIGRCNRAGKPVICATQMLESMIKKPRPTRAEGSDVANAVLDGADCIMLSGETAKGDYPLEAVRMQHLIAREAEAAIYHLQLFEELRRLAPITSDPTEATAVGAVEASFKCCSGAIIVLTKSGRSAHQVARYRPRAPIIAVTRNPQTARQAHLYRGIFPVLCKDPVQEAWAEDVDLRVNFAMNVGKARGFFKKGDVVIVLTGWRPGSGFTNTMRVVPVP
Importin subunit beta-1 (Homo sapiens), Q14974, UniProt Q14974, whole entry, looked up: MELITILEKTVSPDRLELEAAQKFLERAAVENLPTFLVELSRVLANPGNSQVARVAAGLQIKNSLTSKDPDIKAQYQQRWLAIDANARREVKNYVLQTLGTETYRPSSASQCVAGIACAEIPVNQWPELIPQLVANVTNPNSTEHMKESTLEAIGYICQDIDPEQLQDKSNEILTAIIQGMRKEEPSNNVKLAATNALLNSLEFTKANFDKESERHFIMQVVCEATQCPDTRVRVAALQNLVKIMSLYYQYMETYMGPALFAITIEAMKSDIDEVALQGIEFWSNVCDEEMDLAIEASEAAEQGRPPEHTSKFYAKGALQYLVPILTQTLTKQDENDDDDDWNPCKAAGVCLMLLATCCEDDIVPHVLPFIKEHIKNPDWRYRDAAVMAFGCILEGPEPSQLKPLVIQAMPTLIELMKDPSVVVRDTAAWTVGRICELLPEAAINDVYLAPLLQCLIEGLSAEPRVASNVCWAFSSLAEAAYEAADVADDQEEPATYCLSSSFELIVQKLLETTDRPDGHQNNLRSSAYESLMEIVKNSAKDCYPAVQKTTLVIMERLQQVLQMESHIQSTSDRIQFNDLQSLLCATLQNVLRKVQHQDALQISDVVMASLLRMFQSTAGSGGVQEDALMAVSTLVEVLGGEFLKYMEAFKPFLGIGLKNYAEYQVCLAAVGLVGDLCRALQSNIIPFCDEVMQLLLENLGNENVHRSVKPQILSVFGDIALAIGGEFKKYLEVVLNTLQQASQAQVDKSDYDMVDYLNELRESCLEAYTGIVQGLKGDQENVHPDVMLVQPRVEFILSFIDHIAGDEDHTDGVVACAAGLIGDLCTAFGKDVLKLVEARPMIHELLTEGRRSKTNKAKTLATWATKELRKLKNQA

compound	PKM2 activator	ELG1 repair inh	Tb PGK inh	Tb PFK block	Rango-impB inh	Rango dissoc inh
Cc1nnc(N2CCCC(C(=O)Nc3cccc(C(F)(F)F)c3)C2)c2nn(-c3ccccc3)c(C)c12 (stereo not drawn)	.	.	-10%	.	.	.
COc1ccc(-c2cc3ncc(C(C)=O)c(C)n3n2)cc1	-3%	?	-5%	1%	-2%	9%
CN(C)S(=O)(=O)c1cccc(NC(=O)CCc2nc3sc4c(c3c(=O)[nH]2)CCCC4)c1	.	11µM*	-9%	-2%	1%	7%
NC(=O)c1nsc(C(=O)N(CC(=O)NC2CCCCC2)Cc2ccc(F)cc2)c1N	-3%	?	-4%	-3%	-3%	-1%
CC1(C)N=C(N)N=C(N)N1c1ccc(OCCCOc2ccccc2)c(Cl)c1	0%	2.6µM*	-2%	-4%	2%	6%
CC1(C)N=C(N)N=C(N)N1c1ccc(OCC(=O)Nc2ccccc2)c(Cl)c1	.	.	-9%	.	.	.
CCC1CCCCN1S(=O)(=O)c1cc(C(=O)Nc2ccc(C)c(F)c2)ccc1F (stereo not drawn)	.	.	-3%	.	.	.
CCOC(=O)c1cnc2c(C)cccc2c1NCCc1ccc(OC)c(OC)c1	5%	23µM*	3%	-3%	-1%	-6%
CCOC(=O)c1cnc2ccc(C(=O)OC)cc2c1NCCc1ccc(OC)c(OC)c1	1%	15µM*	6%	-1%	-4%	-1%
CCOC(=O)c1cnc2c(C)cc(C)cc2c1NCCc1ccc(OC)c(OC)c1	.	.	-9%	.	.	.
Cc1cc(C)c(C(=O)COC(=O)c2cccc(S(=O)(=O)N3CCOCC3)c2)cc1C	.	.	i	.	.	.
COc1ccc(C(=O)Nc2ccccc2C(=O)NC(Cc2ccc(O)cc2)C(=O)NNC(=O)c2ccccc2)cc1 (stereo not drawn)	6%	16µM*	i	-1%	-1%	0%
COc1ccc(C(=O)Nc2ccccc2C(=O)NC(Cc2ccc(O)cc2)C(=O)NNC(=O)c2ccc(C)cc2)cc1 (stereo not drawn)	-2%	8.2µM*	i	-5%	2%	-10%
O=C1C(=NO)CC(c2ccccc2)N1c1ccccc1 (stereo not drawn)	.	.	10%	.	3%	2%
COc1cc2cc(C(=O)N3CCOCC3)cc(-c3ccc(C)cc3)c2cc1OC	.	15µM*	2%	0%	0%	6%
COc1ccc(-c2csc(NC(=O)c3ccc(OCC(=O)N4CCOCC4)c(OC)c3)n2)cc1	-5%	16µM*	-6%	-3%	?	1%
COc1cc(C(=O)Nc2nc(-c3ccc(F)cc3)cs2)ccc1OCC(=O)N1CCOCC1	-1%	?	-8%	0%	3%	-3%
COc1cc(C(=O)Nc2nc(-c3ccc(C)cc3)cs2)ccc1OCC(=O)N1CCOCC1	8%	21µM*	.	0%	-1%	-2%
CCCCn1c(=N)c(S(=O)(=O)c2ccc(C)cc2)cc2c(=O)n3cc(C)ccc3nc21	.	.	-4%	.	.	.
CCCc1cnc2c(c1SCC(=O)N(C)c1ccccc1)c(=O)n(C)c(=O)n2C	.	.	4%	.	.	.
CCOc1cc(CNC(=O)c2ccc(NC(=O)c3nsc4ccccc34)cc2)ccc1OC	.	.	-10%	.	.	.
C/C(=N\OC(=O)Nc1ccccc1)c1cnn(-c2cc(C(F)(F)F)cc(C)n2)c1C	-3%	3%	-3%	-3%	0%	-20%
COc1ccc(-c2noc(C3CCCN(C(=O)c4ccccc4)C3)n2)cc1 (stereo not drawn)	-5%	-20%	-3%	-3%	0%	19%
O=C(c1ccco1)N1CCCC(c2nc(-c3ccc(S(=O)(=O)NCc4ccccc4)cc3)no2)C1 (stereo not drawn)	2%	21µM*	-9%	-4%	2%	0%
C#CC(=O)N(c1cccc(OC)c1)C(C(=O)NC1CCCC1)c1cccs1 (stereo not drawn)	-1%	21µM*	-2%	2%	-2%	0%

Reprinted at random: five compounds from above.
compound	PKM2 activator	ELG1 repair inh	Tb PGK inh	Tb PFK block	Rango-impB inh	Rango dissoc inh
NC(=O)c1nsc(C(=O)N(CC(=O)NC2CCCCC2)Cc2ccc(F)cc2)c1N	-3%	?	-4%	-3%	-3%	-1%
COc1ccc(-c2cc3ncc(C(C)=O)c(C)n3n2)cc1	-3%	?	-5%	1%	-2%	9%
CCCCn1c(=N)c(S(=O)(=O)c2ccc(C)cc2)cc2c(=O)n3cc(C)ccc3nc21	.	.	-4%	.	.	.
CC1(C)N=C(N)N=C(N)N1c1ccc(OCCCOc2ccccc2)c(Cl)c1	0%	2.6µM*	-2%	-4%	2%	6%
COc1cc(C(=O)Nc2nc(-c3ccc(C)cc3)cs2)ccc1OCC(=O)N1CCOCC1	8%	21µM*	.	0%	-1%	-2%

Going on with the list:
compound	PKM2 activator	ELG1 repair inh	Tb PGK inh	Tb PFK block	Rango-impB inh	Rango dissoc inh
COc1cccc(CN(C(=O)Cc2c[nH]c3ccccc23)C(C(=O)NC2CCCCC2)c2cccs2)c1 (stereo not drawn)	0%	18µM*	-4%	1%	4%	-12%
COc1ccc(C(C(=O)NC2CCCCC2)N(Cc2cccs2)C(=O)Cc2c[nH]c3ccccc23)cc1 (stereo not drawn)	-7%	?	-5%	0%	0%	-3%
C#CC(=O)N(c1ccc(OC)c(OC)c1)C(C(=O)NC1CCCC1)c1cccs1 (stereo not drawn)	-11%	?	0%	-5%	0%	13%
CC1Sc2ccc(S(=O)(=O)CCC(=O)N3CCCC3)cc2NC1=O (stereo not drawn)	-6%	-4%	-7%	-1%	-3%	7%
O=C(NC(Cc1ccccc1)C(=O)O)NC12CC3CC(CC(C3)C1)C2 (stereo not drawn)	3%	4%	0%	0%	-1%	0%
COc1cc(/C=C2\SC(=S)N(Nc3ccccc3)C2=O)ccc1O	-2%	?	-16%	-6%	37µM*	17%
O=C(NN1C(=O)/C(=C/c2cccs2)SC1=S)c1ccncc1	-5%	4.1µM*	i	1%	0%	-11%
O=C1/C(=C/c2ccc(O)c(O)c2)SC(=S)N1Nc1ccccc1	2%	-5%	-11%	-5%	37µM*	0%
O=C(NN1C(=O)/C(=C/c2ccc(O)c(O)c2)SC1=S)c1ccccc1	1%[11.5 µM]	-28%	?	0%	37µM*	?
O=C(CCCN1C(=O)/C(=C\c2cccs2)SC1=S)NNC(=O)c1ccncc1	14%	1%	3%	-2%	?	1%
COC(=O)C(Cc1ccccc1)NC(=S)NC(=O)c1ccccc1 (stereo not drawn)	-4%	-21%	0%	-1%	-3%	15%
COc1cc(CN(C)Cc2cc(=O)n3ccsc3n2)ccc1OC(F)F	6%	13µM*	-3%	-3%	5%	2%
